Assay results: patent US5008245A (University of Kentucky Research Foundation, priority 1988, dated 1991)

By UniProt entry, the sequences of proteins in these tests, tags left out. Residues count along the entry.
UniProt P08246, 30-267 limits assumed: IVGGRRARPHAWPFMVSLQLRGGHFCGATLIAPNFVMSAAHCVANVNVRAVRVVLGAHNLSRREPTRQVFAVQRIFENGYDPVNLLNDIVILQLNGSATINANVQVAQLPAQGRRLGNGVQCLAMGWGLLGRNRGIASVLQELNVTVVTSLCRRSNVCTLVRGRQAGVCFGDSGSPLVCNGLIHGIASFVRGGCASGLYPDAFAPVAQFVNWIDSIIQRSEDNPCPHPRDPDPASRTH

Target: HLE (human leukocyte elastase) (Homo sapiens, UniProt P08246)
Test: HLE presteady state inhibition kinetics
Conditions: [I] = 7.6 × 10^-7 M, [E] = 7.6 × 10^-8 M; for kobs: first order rate constant; for kobs /[I]: second order rate constant
Protocol: ^c First and second order rate constants were determined by presteady
state inhibition kinetics.

SMILES	kobs [s⁻¹]	kobs /[I] [M⁻¹ s⁻¹]
COC(=O)CCC(=O)N[C@@H](CCCNC(=O)OCc1ccccc1)C(=O)N[C@@H](C)C(=O)N1CCC[C@H]1C(=O)CN(C(=O)Oc1ccc([N+](=O)[O-])cc1)C(C)C	0.376	8237
COC(=O)CCC(=O)N[C@@H](CCCNC(=O)OCc1ccccc1)C(=O)N[C@@H](C)C(=O)N1CCC[C@@H]1C(=O)CN(C(=O)Oc1ccc([N+](=O)[O-])cc1)C(C)C	0.021	461
